Test [1] concerns the target T1, human recombinant monoacylglycerol lipase (MAGL) (Homo sapiens, UniProt Q99685).
T1 construct: gene MGLL
Nature of the test: colorimetric MAGL inhibitor screening kit (4-nitrophenyl acetate hydrolysis, […] nm). It counts as biochemical.

Amino acid sequences for entries named in this document (tags omitted).
UniProt Q99685, whole entry: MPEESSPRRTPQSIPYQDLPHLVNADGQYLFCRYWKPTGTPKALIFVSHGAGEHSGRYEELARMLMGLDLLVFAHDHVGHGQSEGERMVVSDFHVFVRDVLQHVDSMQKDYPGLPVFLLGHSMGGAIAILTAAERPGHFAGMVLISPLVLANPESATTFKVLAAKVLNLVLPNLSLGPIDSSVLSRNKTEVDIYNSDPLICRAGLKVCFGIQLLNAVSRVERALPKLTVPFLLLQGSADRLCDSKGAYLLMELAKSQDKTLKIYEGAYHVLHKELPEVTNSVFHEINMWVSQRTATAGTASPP
UniProt O35678, whole entry: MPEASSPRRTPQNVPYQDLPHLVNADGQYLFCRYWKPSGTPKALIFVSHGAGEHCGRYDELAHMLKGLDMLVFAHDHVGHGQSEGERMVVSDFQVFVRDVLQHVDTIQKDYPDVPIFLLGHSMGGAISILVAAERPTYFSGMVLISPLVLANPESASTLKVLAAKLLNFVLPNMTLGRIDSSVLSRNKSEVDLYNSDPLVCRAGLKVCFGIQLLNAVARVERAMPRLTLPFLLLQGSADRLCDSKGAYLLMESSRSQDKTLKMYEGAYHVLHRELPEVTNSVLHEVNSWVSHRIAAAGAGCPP

In test [2] the target is T2, mouse monoacylglycerol lipase (MAGL) (Mus musculus, UniProt O35678).
T2 construct: gene Mgll

In the case of `O=C(Oc1ccc([N+](=O)[O-])cc1)N1CCN(Cc2cccc(Oc3ccccc3)c2)CC1` [JZL195], the values for the IC50 in test [1] and in test [2] were 0.114 µM and 0.869 µM, respectively.

Source of the values: article PMC9395968, “Pristimerin, a triterpene that inhibits monoacylglycerol lipase activity, prevents the development of paclitaxel-induced allodynia in mice” (Frontiers in Pharmacology, 2022).
